{
  "source": "paper PMC7041944",
  "about": "(eLife, 2020)",
  "test_system": "MOR",
  "assay_type": "cell-based, murine",
  "note": "Structures can show the parent of a compound that is named as a salt.",
  "data": [
    {"smiles": "C=CCN1CC[C@]23c4c5ccc(O)c4O[C@H]2C(=O)CC[C@@]3(O)[C@H]1C5", "note": "[naloxone, Naloxone hydrochloride dihydrate]", "values": [
      {"measurement": "reversal of DAMGO-induced mGsi recruitment by MOR antagonist", "result": "rapidly reversed"}
    ]}
  ]
}
